Measurements taken from patent US7151191B2, “Compounds and compositions for delivering active agents” (Emisphere Technologies, Inc., priority 2000, dated 2006).

Assay: Oral (PO) delivery of human zinc insulin with delivery agent compound in rats (serum insulin ELISA)
Details: rat, insulin alone without delivery agent, previous experiments
Experimental: Oral dosing (PO) compositions of delivery agent compound and human zinc insulin (minimum 26 IU/mg available from Calbiochem—Novabiochem Corp, La Jolla, Calif.) were prepared in deionized water. […] The solution was vortexed, then heated (about 37° C.) and sonicated. The pH was adjusted to about 7 to 8.5 with NaOH or HCl. […] The final delivery agent compound dose, insulin dose and dose volume amounts are listed below in Table 1.
The typical dosing and sampling protocols were as follows. […] A dosing group of five rats was administered one of the dosing solutions. […] The syringe was filled with dosing solution by drawing the solution through the catheter, which was then wiped dry. The catheter was placed down the esophagus leaving 1 cm of tubing past the incisors. The dosing solution was administered by pressing the syringe plunger.
The five values for each time point were averaged and the results plotted as serum insulin concentration versus time.

Substance: human insulin
- levels of human insulin following oral dosing with human insulin alone: no measurable levels
